{"source": "patent US20190125869A1", "about": "“PULSED ELECTROMAGNETIC THERAPY FOR DIRECTING AGENTS TO CANCER CELLS” (MMTC, Inc., priority 2017, published 2019)", "key": {"normal muscle tissue": {"tested_on": "normal muscle tissue", "conditions": "normal muscle tissue exposed to microwave pulsing"}, "[1]": {"tested_on": "AT2 prostatic tumor of rats", "conditions": "20 mg in 0.5 ml saline into the tail vein"}}, "note": "Read-outs that look alike come from different tables or passages of the source.", "data": [{"substance": "fluorescin isothiocyanate Dextran", "values": [{"measurement": "uptake of Dextran by muscle (healthy) cells", "setting": "normal muscle tissue", "value": "no significant uptake"}, {"measurement": "uptake of Dextran by the cells of the tumors", "setting": "[1]; non-pulsed contralateral tumors", "value": "almost no uptake"}, {"measurement": "uptake of Dextran by the cells of the tumors", "setting": "[1]; tumors pulsed with microwaves (2.82 GHz, 30 minutes), phase microscope/ultraviolet light", "value": "significant uptake"}, {"measurement": "uptake of Dextran by the cells of the tumors", "setting": "[1]; tumors pulsed with microwaves (2.82 GHz, 30 minutes), phase microscope/ultraviolet light, listed as fluorescin Dextran", "value": "sharply increase the uptake"}]}]}
